Assay outcomes from PubChem BioAssay.
Vif-APOBEC3F blk – inhibitors of Vif-A3F interaction. HeLa A3F-eYFP + Vif (tagged APOBEC3F with the HIV-1 protein that degrades it), YFP fluorescence increase. Potency, µM (top dose mostly 46.1 µM), for the others: at the top dose activity, negative = active. 0.2% of 390,000 active. AID 602313; further: % of control where 0% means no effect; nearly all actives have a fitted effect of over 65% in size
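HeLa cells stably expressing Vif plus C-terminally eYFP-tagged A3F were seeded, incubated overnight at 37 deg C, dosed with compound, incubated overnight again at 37 deg C. Yellow fluorescence (Ex 488/Em 500-530) reported blocked Vif-mediated A3F-eYFP degradation.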
Vif-APOBEC3G blk – inhibitors of Vif-APOBEC3G interaction | HeLa A3G-eYFP + Vif (tagged APOBEC3G with the HIV-1 protein that degrades it), YFP fluorescence, overnight | Potency, µM (top dose mostly 46.1 µM), without a hit: at the top dose activity, negative = active, usual class: inhibitors | 0.076% of 410,000 active; further: on the % scale 0 is the no-effect control and ±100 the full control effect; nearly all actives have a fitted effect of over 60% in size
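Read-out is eYFP fluorescence (Ex 488/Em 500-530) from Vif-expressing HeLa A3G-eYFP cells; more signal means A3G escaped Vif-mediated degradation. Cells plated overnight, compound pinned in, incubated overnight at 37 deg C.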
Rango dissoc inh – inhibitors of RanGTP-induced Rango-importin beta complex dissociation. Biochemical FRET Rango-importin beta, RanGTP-induced dissociation. Potency, µM (top dose mostly 46.1 µM), for the others: top-dose activity change, negative = inhibition. 0.071% of 340,000 active. AID 540253; calls by dose curve; further: % of control where 0% means no effect; nearly all actives have a fitted effect of over 45% in size
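Rango FRET biosensor (snurportin-1 IBB flanked by N-terminal EYFP and C-terminal CFP10) at 0.1 uM, with 0.25 uM importin beta in PBS, 1mM DTT, 0.02% Tween-20, 0.1% BSA. 0.6 uM Ran, 2mM GTP and 0.2 uM RCC1 were then added for 45 min at room temperature. Inhibition read as loss of FRET rise.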
Rango-impB inh – Rango-importin beta binding inhibition; Q14974; Rango CFP/YFP FRET sensor + importin beta, 45 min; Potency, µM (series often up to 92.2 µM), without a hit: top-dose inhibition of complex formation; 0.031% of 340,000 active; AID 540263; calls by dose curve;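 further: 0% = DMSO wells and 100% = buffer wells lacking importin beta; nearly all actives have a fitted effect of over 15% in size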
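FRET biosensor Rango (snurportin 1 IBB between N-terminal EYFP and C-terminal Cerulean), 50 nM in PBS/1 mM DTT/0.02% Tween-20/0.1% BSA, preincubated 5 min RT with compound; 0.125 microM importin beta added, 45 min RT, CFP/YFP FRET ratio read.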
Epigenetic derep – regulators of epigenetic silencing causing reporter derepression in mouse cells | murine LDR cells, GFP reporter derepression, 30 h | Potency, µM (doses to about 53.9 µM), inactives show at the highest dose GFP activation, usual class: activators | 0.2% of 280,000 active; further: % of control where 0% means no effect; nearly all actives have a fitted effect of over 60% in size
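Murine LDR cells carrying a silenced, genomically integrated CMV-driven GFP reporter were exposed to compound for 30 hours at 37 C. After PBS washes, GFP-positive cells (20–120 um objects) were counted by laser-scanning microplate cytometry.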
An asterisk follows results filed as active; ? = inconclusive; nt = no result. Shown are actives, neighbours in structure and some others; about 0.42% of the full set was active somewhere. Unless noted, the call rests on the fitted dose curve; in most records, active means well fitted curve in the direction sought with a large enough effect; inconclusive means small, poorly fitted or top-dose-only effect, or another doubt; inactive means no such curve, though single readings can be large; an effect the other way counts as inactive or inconclusive. Potency means the concentration at half of the fitted maximal effect.

Molecule	Vif-APOBEC3F blk	Vif-APOBEC3G blk	Rango dissoc inh	Rango-impB inh	Epigenetic derep
O=C(Nc1nnc(-c2ccc3c(c2)CCCC3)o1)c1c(F)cccc1F	25.1µM*	-4.7%	-11.5%	5.4%	0.0%
Cc1cc2nc(SCCOC(=O)Nc3cccc(Cl)c3)nc(C)c2cc1C	25.1µM*	-3.0%	-1.4%	-1.7%	0.0%
CCCCn1cc(S(=O)(=O)c2ccc(Cl)cc2)c(=O)c2cc(F)c(N3CCCC(C)C3)cc21 (stereo not given)	-1.6%	-1.7%	nt	nt	1.2%
COc1ccnc(CSC(N)=Nc2ccccc2OC)c1	6.8%	3.6%	0.6%	?	3.55µM*
COc1ccnc(CSC(N)=Nc2ccccc2C(F)(F)F)c1	5.7%	-0.9%	0.2%	1.5%	-1.1%
CC(C)(C)CC(C)(C)N=C1Nc2ccc(Cl)cc2N[C@]12C[C@H]1CCCC(=O)N3CC[C@@H](C2)[C@@H]13	nt	-10.9%	nt	nt	nt
Cc1ccc2nc(-c3ccccn3)c(NC3CCCC3)n2c1	7.94µM*	-0.3%	-2.2%	0.5%	0.0%
Nc1ccc(O)c(-c2nc3ccccc3s2)c1	-3.9%	-3.6%	10.3µM*	?	-1.0%
O=S(=O)(Nc1nc2n(n1)C(c1ccccc1)C=C(c1ccc(Cl)cc1)N2)c1ccccc1 (stereo not given)	22.4µM*	?	nt	nt	-2.1%
Cc1ccc(S(=O)(=O)Nc2nc3n(n2)C(c2ccc(Cl)cc2)C=C(c2ccccc2)N3)cc1 (stereo not given)	?	-28.0%	nt	nt	-5.3%
CCN(CC)CCC[C@H](C)Nc1c2ccc(Cl)cc2nc2ccc(OC)cc12	nt	nt	nt	nt	3.55µM*
CCN(CCO)CCCC(C)Nc1ccnc2cc(Cl)ccc12 (stereo not given)	nt	nt	nt	nt	-1.0%
Fc1ccc(Nc2ncnc3onc(-c4cccc(Cl)c4)c23)c(F)c1	3.4%	1.1%	nt	nt	0.3%
CCOC(=O)c1c(Nc2ccc(Cl)cc2)sc(/C=C2\C=Nc3ccccc32)c1O	7.08µM*	-17.8%	?	?	7.08µM*
O=C(CC(c1cccs1)N1Cc2ccccc2C1=O)Nc1ccccc1 (stereo not given)	-0.3%	-1.2%	nt	nt	5.3%
CCOC(=O)CC1C(=O)NCCN1c1nc2ccc(C)cn2c(=O)c1/C=C1\SC(=S)N(CC(C)C)C1=O (stereo not given)	?	?	?	?	3.55µM*
COc1cc(OC)c(OC)cc1/C=C1\CC(C)C/C(=C\c2cc(OC)c(OC)cc2OC)C1=O (stereo not given)	22.4µM*	?	?	?	nt
CCOC(=O)c1c(CC(C)C)csc1/N=C/C1C(=O)CCCC1=O	22.4µM*	?	?	?	?
Cc1c(N=C2Nc3cccc4cccc2c34)c(=O)n(-c2ccccc2)n1C	-20.2%	-10.0%	2.59µM*	?	-2.7%
CN(C)c1ccc(/C=C2\SC(N3CCCCC3)=NC2=O)cc1	22.4µM*	?	?	?	nt
O=S(=O)(Nc1nc2ccccc2nc1N1CCc2ccccc2C1)c1ccc(Br)cc1	22.4µM*	-21.9%	-25.7%	?	-1.3%
CN1CCN(c2nc3ccccc3nc2NS(=O)(=O)c2ccc(Br)cc2)CC1	10µM*	-10.3%	-12.5%	?	nt
O=S(=O)(Nc1nc2ccccc2nc1N1CCN(c2ccccn2)CC1)c1ccc(Cl)cc1	7.94µM*	?	?	?	0.0%
O=C(CSc1nc2c(c(=O)[nH]1)CCCC2)Nc1ccccc1C(F)(F)F	nt	nt	nt	nt	-0.9%
O=C(NCC1CCCO1)c1nn2c(C(F)(F)F)cc(-c3cc(Br)cs3)nc2c1Br (stereo not given)	10µM*	-9.0%	?	?	nt
Cc1ccc(S(=O)(=O)NNC(=O)c2ccccc2O)cc1	-11.9%	-0.6%	4.7%	-0.6%	1.0%
Cc1ccc(S(=O)(=O)NNC(=O)c2csnn2)cc1	?	-1.1%	?	51.7µM*	1.1%
COc1cccc(NC(=O)CSc2nc(=O)n(Cc3cccnc3)c3c2CCC3)c1	2.2%	-0.3%	nt	nt	1.4%
Clc1ccc[n+](CCCCC[n+]2cccc(Cl)c2)c1	nt	5.4%	nt	nt	nt
Fc1ccc(CNc2nc3ccc(Cl)cc3n3nnnc23)cc1	7.94µM*	-11.6%	nt	nt	?
Cc1ccc(CNc2nc3ccc(Cl)cc3n3nnnc23)cc1	7.08µM*	2.6%	nt	nt	?
COc1ccccc1CNc1nc2ccc(C)cc2n2nnnc12	12.6µM*	-2.9%	nt	nt	?
Cc1ccc(CNc2nc3ccc(C)cc3n3nnnc23)cc1	1.7%	1.3%	nt	nt	5.7%
CCN(CC)c1ccc(CN(C(=O)Cc2coc3ccc(C)cc23)C2CCS(=O)(=O)C2)cc1 (stereo not given)	1.3%	0.4%	nt	nt	-1.9%
CCN(CC)c1ccc(NC2CC(=O)N(CCc3ccc(OC)cc3)C2=O)cc1 (stereo not given)	?	-6.9%	0.3%	4.1%	3.55µM*
CC(C)c1cnc2c(c1SCc1cccc(C(F)(F)F)c1)c(=O)n(C)c(=O)n2C	-1.6%	-0.8%	nt	nt	-2.1%
Cc1ccc(C)c(OCCn2cc(/C=C(\C#N)C(=O)NCc3cccs3)c3ccccc32)c1	-7.3%	-6.0%	-10.4%	?	-0.6%
N#C/C(=C\c1cn(CCOc2ccccc2F)c2ccccc12)C(=O)NCc1cccs1	3.8%	-11.1%	5.8µM*	?	2.8%
CCOc1ccccc1NC(=O)CN1C(=O)CC(c2ccc(C)c(C)c2)=Nc2ccccc21	5.5%	-4.3%	nt	nt	7.4%
NS(=O)(=O)c1cc2c(cc1Cl)NC(Cc1ccccc1)NS2(=O)=O (stereo not given)	12.4%	-1.1%	-12.6%	1.0%	0.5%

A second format for part of the listing above:
Fc1ccc(CNc2nc3ccc(Cl)cc3n3nnnc23)cc1
  Vif-APOBEC3F blk: 7.94µM* | Vif-APOBEC3G blk: -11.6% | Rango dissoc inh: nt | Rango-impB inh: nt | Epigenetic derep: ?

Cc1ccc(CNc2nc3ccc(Cl)cc3n3nnnc23)cc1
  Vif-APOBEC3F blk: 7.08µM* | Vif-APOBEC3G blk: 2.6% | Rango dissoc inh: nt | Rango-impB inh: nt | Epigenetic derep: ?

COc1ccccc1CNc1nc2ccc(C)cc2n2nnnc12
  Vif-APOBEC3F blk: 12.6µM* | Vif-APOBEC3G blk: -2.9% | Rango dissoc inh: nt | Rango-impB inh: nt | Epigenetic derep: ?
